One compound from ChEMBL document CHEMBL1833971, “Towards rational design of cannabinoid receptor 1 (CB1) antagonists for peripheral selectivity” (Bioorg Med Chem Lett, 2011) can be followed below.

Protein sequences, listed by entry. Tags and fused reporters are not part of them.
UniProt P21554, whole entry: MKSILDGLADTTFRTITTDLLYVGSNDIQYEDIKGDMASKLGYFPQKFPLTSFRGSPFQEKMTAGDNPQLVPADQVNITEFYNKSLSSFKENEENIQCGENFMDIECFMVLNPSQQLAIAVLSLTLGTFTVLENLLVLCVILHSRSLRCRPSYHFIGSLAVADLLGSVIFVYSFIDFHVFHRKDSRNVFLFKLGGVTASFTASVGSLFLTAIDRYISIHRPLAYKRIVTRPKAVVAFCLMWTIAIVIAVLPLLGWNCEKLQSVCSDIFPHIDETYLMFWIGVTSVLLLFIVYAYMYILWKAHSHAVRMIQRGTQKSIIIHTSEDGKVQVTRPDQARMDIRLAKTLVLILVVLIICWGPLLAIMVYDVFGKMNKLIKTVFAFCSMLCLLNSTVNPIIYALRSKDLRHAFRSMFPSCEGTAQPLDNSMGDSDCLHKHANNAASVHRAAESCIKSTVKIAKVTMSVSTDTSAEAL

The test has as its target Cannabinoid receptor 1 (Homo sapiens, UniProt P21554). In words: Antagonist activity at human CB1 receptor transfected in CHO-K1 cells co-expressing G-alpha-q16 protein assessed as inhibition of G-alpha-q16 protein-mediated intracellular calcium mobilization. In kind it is functional, cell-based. In outline: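 Fluorescent intracellular calcium read-out in CHO-K1 cells expressing CB1 coupled via Gαq16. Cells pre-incubated with test agent, then a CP55940 concentration-response was run. Antagonism seen as a rightward shift of the agonist curve. Apparent dissociation constant Ke was derived from agonist EC50 with versus without antagonist.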
For orientation: Calcium flux is commonly read through the fluorescence of an indicator in the cells.

As for `Cc1c(C(=O)NCC2CCC(CNS(C)(=O)=O)CC2)nn(-c2ccc(Cl)cc2Cl)c1-c1ccc(Cl)cc1` (mixture of isomers), the Ke was determined as 0.113 µM.
